Among the data in ChEMBL document CHEMBL1201862, “PubChem BioAssay data set” (2004) are IC50 values, retold here.

Protein sequences, listed by entry. Tags and fused reporters are not part of them. Lines headed by an entry give the natural chain unless they say otherwise; changes in a name come on top.
UniProt P05187: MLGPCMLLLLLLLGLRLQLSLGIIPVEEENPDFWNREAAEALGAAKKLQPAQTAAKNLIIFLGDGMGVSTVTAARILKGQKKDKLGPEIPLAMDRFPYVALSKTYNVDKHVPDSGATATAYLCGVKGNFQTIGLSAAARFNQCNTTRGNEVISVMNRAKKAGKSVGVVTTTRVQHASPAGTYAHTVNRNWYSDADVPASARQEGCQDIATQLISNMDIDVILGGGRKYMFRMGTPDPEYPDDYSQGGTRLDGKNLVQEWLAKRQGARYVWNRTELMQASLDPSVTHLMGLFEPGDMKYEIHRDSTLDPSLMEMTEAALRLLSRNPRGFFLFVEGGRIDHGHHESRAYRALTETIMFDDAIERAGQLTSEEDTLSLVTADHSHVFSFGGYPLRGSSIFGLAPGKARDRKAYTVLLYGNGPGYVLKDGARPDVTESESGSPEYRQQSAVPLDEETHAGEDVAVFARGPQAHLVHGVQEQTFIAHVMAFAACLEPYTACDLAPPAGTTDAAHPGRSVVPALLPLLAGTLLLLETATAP

The source made the active and inactive calls. Rule as the data show it: actives have a measured IC50 and inactives only a lower limit.

In the test the target is Alkaline phosphatase, placental type (Homo sapiens, UniProt P05187). Briefly: PLAP enzyme inhibitors, confirmation, biochemical, luminescence (AID 1512). It counts as functional.

The IC50 is the midpoint of a concentration-inhibition curve. With `O=C(Cn1cnc2ccccc21)c1ccc(O)c(O)c1`, the IC50 was active: 1.53 µM.

Take `COc1ccc2c(c1OC)C(=O)OC2CC(=O)c1ccc(O)c(O)c1` (configuration not stated): the IC50 is active: 2.95 µM.
